# System: human mammary carcinoma MX-1 xenografts
# Conditions: FIG. 5; Cyclophosphamide 120 mg/kg oral Q2D×8, ip Q2D×4, with or without Compound D 10 mg/kg iv Q4D×3, Q6D×2; n=8
smiles,measurement,value
O=P1(N(CCCl)CCCl)NCCCO1 (stereo not shown) [Cyclophosphamide],complete remission (CR),8/8

# Source: patent US8859615B2, “Compounds, compositions and methods for reducing toxicity and treating or preventing diseases” (priority 2008, dated 2014)
